The chains behind the UniProt entries cited, without tags or fusion partners. Residues count along the entry.
UniProt Q60805, 19-994: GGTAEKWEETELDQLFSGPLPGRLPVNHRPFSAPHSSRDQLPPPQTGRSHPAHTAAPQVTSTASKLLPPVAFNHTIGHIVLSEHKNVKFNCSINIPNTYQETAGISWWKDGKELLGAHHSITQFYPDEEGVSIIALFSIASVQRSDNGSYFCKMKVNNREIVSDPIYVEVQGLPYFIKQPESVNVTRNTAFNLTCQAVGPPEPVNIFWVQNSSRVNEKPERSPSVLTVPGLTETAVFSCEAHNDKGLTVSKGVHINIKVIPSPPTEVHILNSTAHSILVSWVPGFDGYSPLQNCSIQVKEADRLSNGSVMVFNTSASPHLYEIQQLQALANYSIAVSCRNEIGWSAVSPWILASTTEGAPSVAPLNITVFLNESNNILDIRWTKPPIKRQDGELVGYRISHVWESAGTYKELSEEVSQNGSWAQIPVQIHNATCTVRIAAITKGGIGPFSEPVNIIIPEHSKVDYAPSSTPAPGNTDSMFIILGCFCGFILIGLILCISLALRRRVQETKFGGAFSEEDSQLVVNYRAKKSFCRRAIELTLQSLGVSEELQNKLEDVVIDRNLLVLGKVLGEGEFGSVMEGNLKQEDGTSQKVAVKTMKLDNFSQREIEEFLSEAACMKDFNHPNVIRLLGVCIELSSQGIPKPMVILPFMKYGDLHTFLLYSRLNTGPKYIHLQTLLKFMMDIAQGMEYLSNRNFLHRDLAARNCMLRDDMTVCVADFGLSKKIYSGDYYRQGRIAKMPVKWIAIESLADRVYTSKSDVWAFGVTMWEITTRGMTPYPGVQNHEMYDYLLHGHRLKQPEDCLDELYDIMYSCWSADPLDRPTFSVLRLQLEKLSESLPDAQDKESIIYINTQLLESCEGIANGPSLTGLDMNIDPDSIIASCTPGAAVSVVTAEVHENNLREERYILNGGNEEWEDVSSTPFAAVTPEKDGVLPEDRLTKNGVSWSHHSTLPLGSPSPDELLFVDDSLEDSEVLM

According to patent US20170202847A1, “METHODS FOR THE TREATMENT OF TUMORS” (The University of North Carolina at Chapel Hill, priority 2014, published 2017):

Biological target: MER in mouse macrophages (Mus musculus, UniProt Q60805)
Details: in vitro

SMILES: CCCCNc1ncc2c(-c3ccc(CN4CCN(C)CC4)cc3)cn([C@H]3CC[C@H](O)CC3)c2n1 [MRX6313]
- phosphorylation of MER in mouse macrophages: inhibited phosphorylation of MER
- survival of macrophages or MER-negative PyVmT tumor cells: did not affect survival
